Our source for the solubility in water values is article doi:10.1101/2024.05.30.596569v1 (bioRxiv, 2024).

The data set can be described thus: Solubility in water. The format is physicochemical. Particulars: unformulated compounds, statement in words.

On to `C[C@@H](O)[C@@H]1NC(=O)[C@H]2NC(=O)[C@H](CC(N)=O)NC(=O)[C@@H](N)Cc3c[nH]c4c(cccc34)OC2c2c[nH]c3cc(ccc23)C(CCCN)[C@@H](C(=O)N[C@@H](CCCNC(=N)N)C(=O)N[C@@H](Cc2c[nH]c3ccccc23)C(=O)O)NC1=O` (stereo partly shown), for which the solubility in water entry is listed as “highly soluble in water”.
